Molecular target: … foldon collagen model peptide (leucine to proline) (not stated | bacteriophage T4)
Assay: ELISA; collagen model peptide or collagen XI coated; COMP or TSP-4 at indicated concentrations in TBS-T with 0.25% BSA, 1 h, room temperature; detected with anti-COMP or anti-TSP-4 antibody; four-parameter logistic fit; apparent KD

Amino acid sequences for entries named in this document (tags omitted). Residues count along the entry.
UniProt P49747, 21-757: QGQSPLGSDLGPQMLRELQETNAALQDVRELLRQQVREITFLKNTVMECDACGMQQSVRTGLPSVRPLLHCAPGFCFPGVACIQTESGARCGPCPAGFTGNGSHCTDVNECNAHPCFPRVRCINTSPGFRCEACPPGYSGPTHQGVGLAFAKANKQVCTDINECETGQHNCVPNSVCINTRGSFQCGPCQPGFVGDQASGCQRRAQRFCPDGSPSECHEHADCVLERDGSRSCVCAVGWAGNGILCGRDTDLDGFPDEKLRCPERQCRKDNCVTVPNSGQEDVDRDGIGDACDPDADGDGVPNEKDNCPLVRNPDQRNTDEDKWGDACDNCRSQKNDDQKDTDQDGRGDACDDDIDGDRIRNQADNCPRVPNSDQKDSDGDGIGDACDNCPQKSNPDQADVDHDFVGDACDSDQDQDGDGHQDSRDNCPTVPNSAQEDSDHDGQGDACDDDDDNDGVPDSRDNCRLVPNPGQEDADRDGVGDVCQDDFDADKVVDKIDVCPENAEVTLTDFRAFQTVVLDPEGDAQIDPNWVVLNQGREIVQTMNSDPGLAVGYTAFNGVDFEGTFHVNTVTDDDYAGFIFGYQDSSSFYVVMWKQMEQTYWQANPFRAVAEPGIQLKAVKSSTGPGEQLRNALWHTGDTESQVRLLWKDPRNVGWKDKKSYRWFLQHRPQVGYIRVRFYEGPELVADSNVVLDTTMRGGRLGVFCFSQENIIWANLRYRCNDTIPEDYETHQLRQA

Kd: 3.57 nM
Substance: cartilage oligomeric matrix protein (COMP), wild type, pentameric (from UniProt P49747 21-757) (natural protein)
